Experimental findings from publication PMC5557675 (mSphere, 2017) are described below.

Amino acid sequences for entries named in this document (tags omitted). Residues count along the entry.
UniProt A8I5W8, 1-171: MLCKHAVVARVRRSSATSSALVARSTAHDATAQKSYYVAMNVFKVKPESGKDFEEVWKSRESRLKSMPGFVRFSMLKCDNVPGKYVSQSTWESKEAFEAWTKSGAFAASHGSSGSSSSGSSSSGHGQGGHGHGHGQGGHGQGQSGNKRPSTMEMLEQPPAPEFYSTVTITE

The assay has as its target T1, LFO1 (Chlamydomonas reinhardtii, UniProt A8I5W8).
T1 construct: gene CHLRE_07g312300v5
The experiment in a line: absorbance titration, […] nm difference. The format is binding.

Usually Kd stands for the concentration at which binding is half-saturated.

For the compound `C=CC1=C(C)C2=Cc3c(C=C)c(C)c4[n]3[Fe]([Cl])[n]3c(c(C)c(CCC(=O)O)c3=CC3=NC(=C4)C(C)=C3CCC(=O)O)=CC1=N2` [heme], binding was characterised by a dissociation constant (Kd) of 2400 ± 300 nM.
